The chains behind the UniProt entries cited, without tags or fusion partners.
UniProt P21453, whole entry: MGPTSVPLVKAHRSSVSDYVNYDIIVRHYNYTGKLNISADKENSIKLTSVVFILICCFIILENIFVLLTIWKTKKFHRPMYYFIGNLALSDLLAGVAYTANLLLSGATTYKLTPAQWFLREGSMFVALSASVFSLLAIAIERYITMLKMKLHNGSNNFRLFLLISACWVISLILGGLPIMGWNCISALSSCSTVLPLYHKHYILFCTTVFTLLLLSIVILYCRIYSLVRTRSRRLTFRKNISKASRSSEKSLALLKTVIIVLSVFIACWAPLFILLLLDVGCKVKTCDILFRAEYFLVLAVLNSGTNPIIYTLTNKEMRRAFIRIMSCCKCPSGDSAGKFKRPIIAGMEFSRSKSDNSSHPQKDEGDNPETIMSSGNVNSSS

According to PMC9323733, “Efficacy of Vafidemstat in Experimental Autoimmune Encephalomyelitis Highlights the KDM1A/RCOR1/HDAC Epigenetic Axis in Multiple Sclerosis” (Pharmaceutics, 2022):

Molecular target: T1, human S1P1 receptor (Homo sapiens, UniProt P21453)
T1 construct: host or cells: CHO cells
Assay: CellKey impedance assay in CHO cells, agonistic and antagonistic effect
Type: cell-based
Conditions: GPCR based impedance assays
Protocol: Cell on impedance modulation, using the CellKey (Cellular Dielectric Spectroscopy) detection method (CellKey 96, MDS Sciex, Concord, ON, Canada) at Eurofins Pharma Discovery Services (Celle-Lévescault, France). CHO cells were seeded onto a 96-well plate at 15.104 cells/well in HBSS buffer (Invitrogen), 20 mM HEPES (Invitrogen), 10% FCS (Invitrogen), and 0.1% BSA (Sigma), allowed to equilibrate for 60 min at 28 °C. DMSO solutions of compounds were diluted in HBSS and 0.1% BSA. Plates were placed onto the system, and measurements were made at a temperature of 28 °C. To measure the agonistic effect, compounds and controls in duplicate were added simultaneously to all of the wells using an integrated fluidics system. Impedance measurements were monitored for 10 min after ligand addition. S1P (Sigma) was used as reference agonist (EC50 = 0.001 µM). To measure the antagonistic effect, compounds and controls in duplicate were pre-incubated for 15 min before the addition of the reference agonist S1P at 0.01 µM (EC80). Impedance measurements were monitored for 10 min.
Evaluation of the agonistic (a) and antagonist (b) effect of the compounds on the human S1P1 receptor. […] Data are expressed as percentage of control (no compound) activity, n = 2. TSA was used as a control; (d) Cellular HDAC activity assay. […] SAHA was used as a control. Ponceau S staining was used as loading control. Veh: Vehicle. […]

CCCCCCCCc1ccc(CC[C@](N)(CO)COP(=O)(O)O)cc1 [FTY720-P, Fingolimod Phosphate]
agonist and antagonist activity at S1P1 receptor: acts both as an agonist [46] and antagonist
